Source: ChEMBL document CHEMBL1132136, “Ring constrained analogues of the orvinols: the furanomorphides” (1999)
pIC50: −log10 of the molar value.

Columns and labels:
[1] = organism: Cavia porcellus; test: Agonistic activity in electrically stimulated guinea pig ileum preparation (GPI) in presence of mu-selective antagonist CTAP
[2] = organism: Cavia porcellus; test: Agonistic activity in electrically stimulated guinea pig ileum preparation (GPI)

| SMILES | Ke [1] [nM] | pIC50 [2] |
| --- | --- | --- |
| C[C@@H](NC(=O)[C@@H](N)Cc1ccc(O)cc1)C(=O)NCC(=O)N(C)[C@@H](Cc1ccccc1)C(=O)NCCO | 25.3 |  |
| CC1(C)OC23CCC4(CC2C1(C)C)C1Cc2ccc(O)c5c2C4(CCN1CC1CC1)C3O5 (stereo not drawn) |  | 7.28 |
| CO[C@@]12CC[C@@]3(C[C@@H]1[C@](C)(O)C(C)(C)C)[C@H]1Cc4ccc(O)c5c4[C@@]3(CCN1CC1CC1)[C@H]2O5 |  | 8.09 |
